Legend:
[1] = molecular target: Histamine H2 receptor (Cavia porcellus) (UniProt P47747); assay: Percent maximum response against histamine H2 receptor in guinea pig atrium was evaluated; type: tissue-based; conditions: Cardiac atrium
In short: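 Isolated guinea pig atrium under 400-mg tension with propranolol (0.5 μM). Complete cumulative dose-response curves to histamine and test agonist, up to 781 μM, used to find the maximum response obtainable, expressed relative to histamine.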

Protein sequences, listed by entry. Tags and fused reporters are not part of them.
UniProt P47747, whole entry, looked up: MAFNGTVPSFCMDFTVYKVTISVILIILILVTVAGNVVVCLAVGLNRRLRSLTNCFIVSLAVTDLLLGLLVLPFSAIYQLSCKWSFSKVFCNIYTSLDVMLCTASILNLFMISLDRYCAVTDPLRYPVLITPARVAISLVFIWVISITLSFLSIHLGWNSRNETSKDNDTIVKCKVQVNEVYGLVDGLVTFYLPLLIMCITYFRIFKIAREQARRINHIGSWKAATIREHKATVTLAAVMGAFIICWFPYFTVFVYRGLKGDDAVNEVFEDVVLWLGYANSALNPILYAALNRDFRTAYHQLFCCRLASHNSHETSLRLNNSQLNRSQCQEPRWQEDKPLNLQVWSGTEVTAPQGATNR

[2] = molecular target: Histamine H2 receptor (Cavia porcellus) (UniProt P47747); assay: Agonistic activity against histamine H2 receptor in guinea pig atrium (potency relative to histamine =1); type: functional, tissue-based; conditions: Cardiac atrium
In short: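 Isolated guinea pig atrium, muscle under 400-mg tension, propranolol (0.5 μM) present. Agonist tested up to 781 μM (0.1% histamine) by cumulative dose-response curves. Potency relative to histamine taken from concentrations giving 50% of maximal response; selected compounds by 2 + 2 Latin square parallel-line assay against histamine.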

## Cc1[nH]cnc1CSCCSC(=N)NCCCc1c[nH]cn1
[1]
  Max response: 83%
[2]
  Potency: 6.85
